## Melting point values, as collected for the OPERA models

Values as listed in the OPERA 2.9 repository of K. Mansouri.

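The OPERA project collected these measurements from public sources as training and test data for property models. The files give a single number for a compound and property, which may rest on several reports. How each value was measured is not recorded, so precision varies. A value may pool stereoisomers or salt forms, and the file does not say which form was measured. Unmarked limits or estimates from the upstream databases cannot be ruled out.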

The melting point is given in degrees Celsius. "–" marks a cell with nothing listed here. "via" names the databases from which the curators took the value.

SMILES,name,MP (°C),via
O=C(O)CC(C(=O)O)C(O)C(=O)O (configuration not stated),"3-Carboxy-2,3-dideoxypentaric acid",163.5,PubChem
CCOC(=O)C(C)C1CCCCC1 (configuration not stated),"Cyclohexaneacetic acid, .alpha.-methyl-, ethyl ester",-36.5,eChemPortal
COc1ccccc1C(=O)NS(=O)(=O)c1ccc(C(=O)NC2CC2)cc1,Cyprosulfamide,218,eChemPortal
CCOc1ccc(C(=O)NCC(=O)O)cc1,(4-Ethoxy-benzoylamino)-acetic acid,155,OCHEM
CCCCCCCCCCCCCCCCCC(=O)OC(CCCCCC)CCCCCCCCCCC(=O)OCC(CCCCCCCC)CCCCCCCCCC (configuration not stated),–,-10,eChemPortal
CN(C)CCCN(C)CCCN(C)C,"2,6,10-Trimethyl-2,6,10-triazaundecane",-91,eChemPortal
O=C(O)Cn1c(=O)[nH]c2ccccc2c1=O,"(2,4-dioxo-1,4-dihydroquinazolin-3(2H)-yl)acetic acid",296,OCHEM
NC(=S)NCc1ccc(F)cc1,N-(4-fluorobenzyl)thiourea,120,OCHEM
CCCCCCCCCCCCCCCCCCOC(=O)/C=C/C(=O)OCCCCCCCCCCCCCCCCCC,"2-Butenedioic acid (2E)-, di-C18-22-alkyl esters",70,eChemPortal
Cn1[nH]c(=O)c(=O)nc1SCC1=C(C(=O)O)N2C(=O)[C@@H](N)C2SC1 (stereo partly drawn),–,375,eChemPortal
O=C(CCl)Nc1cc(C(F)(F)F)ccc1Cl,2-chloro-N-[2-chloro-5-(trifluoromethyl)phenyl]acetamide,72,OCHEM
CCCCC1(CCCC)c2ccccc2-c2ccc(C(=O)C(C)(C)N3CCOCC3)cc21,–,67.95,eChemPortal
S=c1nc2ncccn2[nH]1,"[1,2,4]Triazolo[1,5-a]pyrimidine-2(1H)-thione",235,OCHEM
CCc1ccc2c(c1)C(=O)C(=O)N2,"5-Ethyl-1H-indole-2,3-dione",115,OCHEM
O=S(=O)(Cl)c1ccc(Cl)nc1,6-Chloropyridine-3-sulfonyl chloride,49,OCHEM
O=C(O)CCC(=O)c1ccc2c(c1)CCCC2,"5,6,7,8-Tetrahydro-gamma-oxonaphthalene-2-butyric acid",123,OCHEM
O=Cc1cc(F)c(O)cc1F,"2,5-Difluoro-4-hydroxybenzaldehyde",146.5,OCHEM
CC1Cc2ccccc2/[N+]1=C\C=C1/N(C)c2ccccc2C1(C)C.[Cl-] (stereo partly drawn),–,120.5,eChemPortal
CCCCCCCC/C=C\CCCCCCCC(=O)NCCCN(C)C,N-[3-(Dimethylamino)propyl]oleamide,-8.9,eChemPortal
Cc1cc2cccc3ccc4c5ccccc5cc1c4c32,"Benzo(a)pyrene, 5-methyl-",216,OCHEM
O=C(O)CC1CCS(=O)(=O)C1 (configuration not stated),"(1,1-Dioxo-1lambda~6~-thiolan-3-yl)acetic acid",88,OCHEM
COc1ccc(COCC(=O)O)cc1,[(4-Methoxyphenyl)methoxy]acetic acid,42,OCHEM
CC(C)C(NC(N)=O)C(=O)O (configuration not stated),2-(carbamoylamino)-3-methylbutanoic acid,205,OCHEM
O=Cc1ccc(OCC(=O)c2ccccc2)cc1,4-(2-oxo-2-phenylethoxy)benzaldehyde,117,OCHEM
O=C(O)c1c(Cl)nc2sccn12,"6-Chloro-imidazo[2,1-b]thiazole-5-carboxylic acid",182,OCHEM
Cn1cc(C=O)c(=O)n(C)c1=O,–,122,OCHEM
NC(NO)=C1C=CC(=O)C=C1,"4,N-Dihydroxy-benzamidine",154,OCHEM
CCCCCCCCCCCCCCCCCCNC(=O)CCCCCCCCCCCCCCCCC,"Octadecanamide, N-octadecyl-",85.1,eChemPortal
CCCCCCCCCCCCCC[P+](CCCCCC)(CCCCCC)CCCCCC.[Cl-],Trihexyltetradecylphosphonium chloride,-66.45,eChemPortal
CCOC(=O)c1ccc(-n2c(C)nc3ccccc3c2=O)cc1,ethyl 4-(2-methyl-4-oxoquinazolin-3(4H)-yl)benzoate,174,OCHEM
CCC1(CC)NC(=O)NC1=O,"5,5-Diethylhydantoin",181,OCHEM
CCn1c(O)c(/N=N/c2ccc(/N=N/c3cc(OCCO)c(/N=N/c4c(S(=O)(=O)[O-])cc5cc(S(=O)(=O)[O-])cc(O)c5c4O)cc3OCCO)c(S(=O)(=O)[O-])c2)c(C)c(C(N)=O)c1=O.[K+].[K+].[Na+],–,270,eChemPortal
CCC[Si](OC(C)=O)(OC(C)=O)OC(C)=O,Propylsilanetriyl triacetate,-34.4,eChemPortal
CC(O)CN(CC(C)O)C(=O)c1ccccc1 (configuration not stated),"N,N-Bis(2-hydroxypropyl)benzamide",77.45,eChemPortal
CS(=O)(=O)Nc1cccc(CN)c1,N-[3-(Aminomethyl)phenyl]methanesulfonamide,127,OCHEM
CC(=O)OCC(=O)[C@@]1(O)[C@H](C)C[C@H]2[C@@H]3C=C(C)C4=Cc5c(cnn5-c5ccccc5)C[C@]4(C)[C@H]3[C@@H](O)C[C@@]21C,Cortivazol,230,OCHEM
CCCCc1ccc(Nc2ccc(Nc3ccc(CCCC)cc3)c3c2C(=O)c2c(Nc4ccc(CCCC)cc4)ccc(Nc4ccc(CCCC)cc4)c2C3=O)cc1,–,178,eChemPortal
CC(C)c1ccc(Cn2nccc2N)cc1,1-(4-isopropylbenzyl)-1H-pyrazol-5-amine,17,OCHEM
CCCCCCCCCCCCn1ccnc1,1-Dodecyl-1H-imidazole,7,eChemPortal
Cl.N=C(CCCl)NS(N)(=O)=O,–,134,eChemPortal
Cn1cnnc1S(=O)(=O)O,"4-methyl-4H-1,2,4-triazole-3-sulfonic acid",171,OCHEM
O=C(c1ccc(O)cc1)c1ccc(C(=O)c2ccc(O)cc2)cc1,–,307.9,eChemPortal
O=C(O)c1cc(Cl)ccc1-n1cnnn1,5-Chloro-2-(1H-tetrazol-1-yl)benzoic acid,199,OCHEM
CCOC(=O)C(=O)C(C#N)c1ccccc1 (configuration not stated),–,126.5,OCHEM
Nc1ncnc(Nc2ccc(F)cc2)n1,"N~2~-(4-Fluorophenyl)-1,3,5-triazine-2,4-diamine",250,OCHEM
CN(/N=C/C1=[N+](C)c2ccccc2C1(C)C)c1ccccc1.[Cl-],–,211.3,eChemPortal
C=CC(=O)OCCCCOc1ccc(C(=O)Oc2ccc(OC(=O)c3ccc(OCCCCOC(=O)C=C)cc3)c(C)c2)cc1,–,80,eChemPortal
CCCCCCCCC(=O)OCC(C)(C)COC(=O)CCCCCCCC,Neopentyl dipelargonate,-9.6,eChemPortal
S=c1cn[nH]c2ccccc12,4-Cinnolinethiol,81,OCHEM

The 6 highest values of MP among the entries above:

SMILES,name,MP (°C),via
Cn1[nH]c(=O)c(=O)nc1SCC1=C(C(=O)O)N2C(=O)[C@@H](N)C2SC1 (stereo partly drawn),–,375,eChemPortal
O=C(c1ccc(O)cc1)c1ccc(C(=O)c2ccc(O)cc2)cc1,–,307.9,eChemPortal
O=C(O)Cn1c(=O)[nH]c2ccccc2c1=O,"(2,4-dioxo-1,4-dihydroquinazolin-3(2H)-yl)acetic acid",296,OCHEM
CCn1c(O)c(/N=N/c2ccc(/N=N/c3cc(OCCO)c(/N=N/c4c(S(=O)(=O)[O-])cc5cc(S(=O)(=O)[O-])cc(O)c5c4O)cc3OCCO)c(S(=O)(=O)[O-])c2)c(C)c(C(N)=O)c1=O.[K+].[K+].[Na+],–,270,eChemPortal
Nc1ncnc(Nc2ccc(F)cc2)n1,"N~2~-(4-Fluorophenyl)-1,3,5-triazine-2,4-diamine",250,OCHEM
S=c1nc2ncccn2[nH]1,"[1,2,4]Triazolo[1,5-a]pyrimidine-2(1H)-thione",235,OCHEM